Patent US11773129B2, “Methods of preventing or treating atherosclerosis with inhibitors of specific isoenzymes of human neuraminidase” (THE GOVERNORS OF THE UNIVERSITY OF ALBERTA, priority 2017, dated 2023)

Test system: NEU1, NEU2, NEU3, NEU4
Assay: Isoenzyme specificity/selectivity from 4MU-NANA IC50 across the four human neuraminidases
Format: biochemical
Conditions: isoenzyme(s) the compound is specific for; dual (bispecific) when ratio of IC50 is about 3 or less

Target: NEU4
Compound: CC(=O)N[C@H]1[C@H]([C@H](O)[C@H](O)Cn2cc(CO)nn2)OC(C(=O)O)=C[C@@H]1O
